Measurements as given in patent US20250179045A1, “LPAR1 ANTAGONISTS AND USES THEREOF” (Contineum Therapeutics, Inc., priority 2021, published 2025).

Amino acid sequences for entries named in this document (tags omitted).
UniProt Q92633, whole entry: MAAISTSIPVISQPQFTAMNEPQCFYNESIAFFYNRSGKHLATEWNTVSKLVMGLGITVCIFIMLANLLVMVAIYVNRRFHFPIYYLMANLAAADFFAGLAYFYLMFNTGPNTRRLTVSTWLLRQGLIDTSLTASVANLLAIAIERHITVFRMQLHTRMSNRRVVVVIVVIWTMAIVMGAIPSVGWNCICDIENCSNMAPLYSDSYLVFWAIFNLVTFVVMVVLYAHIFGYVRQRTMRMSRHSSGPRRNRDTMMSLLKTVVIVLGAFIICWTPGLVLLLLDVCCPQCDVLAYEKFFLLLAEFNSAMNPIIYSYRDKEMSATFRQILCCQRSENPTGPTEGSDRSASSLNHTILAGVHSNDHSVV

Target: human LPA1 (Homo sapiens, UniProt Q92633)
Assay: In vitro functional assay of lysophosphatidic acid receptor 1 activity (calcium flux)
Settings: read-out: LPA1 IC50; B103 cells stably expressing human LPA1; Fluo-4 NW calcium flux after lysophosphatidic acid (18:1) at EC80; compounds 100 pM to 10 μM

IC50 | SMILES
10 to 100 nM | CC(C)c1ccccc1C1(C(=O)Nc2ccc(Cl)cn2)CC(CC(=O)O)C1 (single isomer, unassigned)
< 10 nM | COc1ccc(NC(=O)C2(c3ccccc3C(C)C)CC(CC(=O)O)C2)c(OC(F)F)n1 (single isomer, unassigned)
< 10 nM | Cc1ccc(NC(=O)C2(c3ccccc3C(C)C)CC(CC(=O)O)C2)c(OC(F)F)n1 (single isomer, unassigned)
10 to 100 nM | COc1ccc(NC(=O)C2(c3ccccc3C(C)C)CC(=O)N(C)C2)c(OC(F)F)n1 (single isomer, unassigned) [Example 1, N-(2-(difluoromethoxy)-6-methoxypyridin-3-yl)-3-(2-isopropylphenyl)-1-methyl-5-oxopyrrolidine-3-carboxamide]
